Values quoted from earlier work in US8802053B2 (Brookhaven Science Associates, LLC, priority 2009, dated 2014).

Chains of the proteins cited; added tags and fusions are not shown.
UniProt P11511, whole entry, species assumed: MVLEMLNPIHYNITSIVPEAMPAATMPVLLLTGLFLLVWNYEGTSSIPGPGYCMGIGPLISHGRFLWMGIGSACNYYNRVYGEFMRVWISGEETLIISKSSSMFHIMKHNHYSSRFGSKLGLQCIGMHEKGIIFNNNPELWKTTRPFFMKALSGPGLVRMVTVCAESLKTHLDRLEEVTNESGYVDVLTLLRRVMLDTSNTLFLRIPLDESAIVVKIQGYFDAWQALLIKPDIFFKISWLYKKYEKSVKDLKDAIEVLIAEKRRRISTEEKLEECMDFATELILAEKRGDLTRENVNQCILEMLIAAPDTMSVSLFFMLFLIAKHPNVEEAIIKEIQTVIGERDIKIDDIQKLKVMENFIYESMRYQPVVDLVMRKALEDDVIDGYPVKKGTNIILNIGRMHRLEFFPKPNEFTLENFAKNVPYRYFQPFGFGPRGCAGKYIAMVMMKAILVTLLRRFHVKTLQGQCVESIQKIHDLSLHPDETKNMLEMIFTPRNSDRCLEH

Biological target: aromatase (Homo sapiens, UniProt P11511)
Conditions: Wouters et al. (1990); cited from earlier work

Cn1nnc2ccc([C@@H](c3ccc(Cl)cc3)n3cncn3)cc21 [(R)-vorozole]
activity of enantiomer: inactive
